Measured values as given in ChEMBL document CHEMBL1795255, “Discovery and optimization of potent and selective benzonaphthyridinone analogs as small molecule mTOR inhibitors with improved mouse microsome stability” (Bioorg Med Chem Lett, 2011).

Sequences of proteins named here, by UniProt entry; tags and fusion partners are left off. A change or cut given only in a name is not applied to a line headed by its entry.
UniProt O00329: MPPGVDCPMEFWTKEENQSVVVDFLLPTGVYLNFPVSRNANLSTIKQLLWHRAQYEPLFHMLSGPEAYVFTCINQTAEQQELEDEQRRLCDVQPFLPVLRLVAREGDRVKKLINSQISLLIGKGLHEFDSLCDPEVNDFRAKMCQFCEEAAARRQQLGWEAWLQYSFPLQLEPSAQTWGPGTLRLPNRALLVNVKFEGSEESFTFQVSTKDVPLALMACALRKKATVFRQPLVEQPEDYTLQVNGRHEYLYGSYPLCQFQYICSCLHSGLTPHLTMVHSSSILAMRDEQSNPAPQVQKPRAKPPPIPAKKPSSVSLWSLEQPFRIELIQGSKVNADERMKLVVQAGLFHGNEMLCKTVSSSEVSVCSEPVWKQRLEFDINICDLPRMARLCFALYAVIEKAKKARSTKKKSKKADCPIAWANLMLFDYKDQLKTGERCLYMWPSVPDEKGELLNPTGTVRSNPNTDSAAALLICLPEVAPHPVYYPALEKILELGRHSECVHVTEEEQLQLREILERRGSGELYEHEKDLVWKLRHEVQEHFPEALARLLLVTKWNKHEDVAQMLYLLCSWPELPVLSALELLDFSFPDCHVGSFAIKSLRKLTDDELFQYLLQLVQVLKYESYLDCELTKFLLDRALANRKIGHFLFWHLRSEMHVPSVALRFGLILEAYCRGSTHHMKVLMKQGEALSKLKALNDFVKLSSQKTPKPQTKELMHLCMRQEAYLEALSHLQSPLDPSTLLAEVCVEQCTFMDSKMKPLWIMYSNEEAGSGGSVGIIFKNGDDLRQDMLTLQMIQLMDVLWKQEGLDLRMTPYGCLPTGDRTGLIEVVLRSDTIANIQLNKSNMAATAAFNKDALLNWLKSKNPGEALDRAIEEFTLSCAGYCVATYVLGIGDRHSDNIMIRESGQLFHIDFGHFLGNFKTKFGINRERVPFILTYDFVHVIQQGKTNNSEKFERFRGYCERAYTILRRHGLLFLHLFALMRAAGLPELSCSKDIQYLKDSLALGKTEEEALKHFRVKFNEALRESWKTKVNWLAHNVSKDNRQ
UniProt P48736: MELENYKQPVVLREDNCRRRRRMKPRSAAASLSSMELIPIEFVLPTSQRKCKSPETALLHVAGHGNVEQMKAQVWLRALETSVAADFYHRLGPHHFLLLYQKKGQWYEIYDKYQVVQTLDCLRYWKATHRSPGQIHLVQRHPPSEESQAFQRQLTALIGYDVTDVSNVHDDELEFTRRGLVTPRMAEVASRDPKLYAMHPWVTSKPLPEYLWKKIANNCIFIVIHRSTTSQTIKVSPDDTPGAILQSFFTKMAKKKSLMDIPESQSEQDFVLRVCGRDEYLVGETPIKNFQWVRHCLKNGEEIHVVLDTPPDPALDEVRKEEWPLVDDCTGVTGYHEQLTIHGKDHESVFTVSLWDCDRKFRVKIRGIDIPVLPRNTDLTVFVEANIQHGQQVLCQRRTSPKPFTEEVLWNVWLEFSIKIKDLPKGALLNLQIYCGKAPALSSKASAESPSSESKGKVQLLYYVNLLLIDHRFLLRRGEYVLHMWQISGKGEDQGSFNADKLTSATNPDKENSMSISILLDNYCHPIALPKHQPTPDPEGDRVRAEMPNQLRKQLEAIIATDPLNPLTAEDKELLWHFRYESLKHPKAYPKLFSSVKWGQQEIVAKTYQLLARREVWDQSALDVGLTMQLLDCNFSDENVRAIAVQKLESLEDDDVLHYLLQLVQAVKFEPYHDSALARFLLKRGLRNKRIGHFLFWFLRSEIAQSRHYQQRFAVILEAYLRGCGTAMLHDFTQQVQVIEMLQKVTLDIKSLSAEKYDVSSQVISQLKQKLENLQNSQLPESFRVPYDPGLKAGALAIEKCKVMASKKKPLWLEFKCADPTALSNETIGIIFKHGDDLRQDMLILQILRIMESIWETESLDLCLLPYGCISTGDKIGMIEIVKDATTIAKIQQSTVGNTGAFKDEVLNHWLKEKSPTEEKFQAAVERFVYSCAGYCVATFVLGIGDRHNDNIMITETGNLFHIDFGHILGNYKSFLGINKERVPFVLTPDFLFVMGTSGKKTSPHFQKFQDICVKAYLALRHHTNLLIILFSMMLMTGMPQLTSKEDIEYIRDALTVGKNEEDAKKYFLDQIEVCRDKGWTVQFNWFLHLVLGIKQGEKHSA

Legend:
[1] = biological target: PI3-kinase p110-delta/p85-alpha (Homo sapiens, UniProt O00329); assay: Inhibition of P110delta/p85alpha; format: protein-complex assay
[2] = Inhibition of PI3K-dependent Akt phosphorylation at T308 residue in human PC3 cells; format: cell-based; details: PC-3
[3] = biological target: Phosphatidylinositol 4,5-bisphosphate 3-kinase catalytic subunit gamma isoform (Homo sapiens, UniProt P48736); assay: Inhibition of P110gamma

SMILES: CN1CCC(NC(=O)c2ccc(-c3ccc(-n4c(=O)ccc5cnc6ccc(-c7cnc8ccccc8c7)cc6c54)cc3C(F)(F)F)cc2)CC1
- IC50 [1]: 1.17 µM
- EC50 [2]: 1 µM
- IC50 [3]: 1.17 µM
